Read-outs that look alike come from different tables or passages of the source.
Conditions: for K2EDTA KRBC/PL: pooled K2EDTA whole blood; for K2EDTA KRBC/PL / Heparin KRBC/PL: 2 hours, LC-MS/MS (ICP-MS for Ga^3+); for Heparin KRBC/PL: pooled sodium heparin whole blood; for KRBC/PL: equilibrium data, ICP-MS, K2EDTA whole blood

O=[N+]([O-])[O-].O=[N+]([O-])[O-].O=[N+]([O-])[O-].[Ga+3] [Ga^3+, gallium nitrate, reference compound]
K2EDTA KRBC/PL (0.1 μg/mL): 0.12 ± 0.01 | Heparin KRBC/PL (0.1 μg/mL): 0.12 ± 0.01 | K2EDTA KRBC/PL (1 μg/mL): 0.11 ± 0.03 | Heparin KRBC/PL (1 μg/mL): 0.11 ± 0.01 | KRBC/PL (B/P ratio) (concentration in whole blood divided by concentration in plasma, this study): 0.3 | KRBC/PL (HQC): 0.114 ± 0.026 | KRBC/PL (LQC): 0.115 ± 0.010

Source: PMC12264554 (2025)
